The record followed here is patent US6096763A, “α1a adrenergic receptor antagonists” (dated 2000).

Sequences of proteins named here, by UniProt entry; tags and fusion partners are left off.
UniProt P41144, whole entry: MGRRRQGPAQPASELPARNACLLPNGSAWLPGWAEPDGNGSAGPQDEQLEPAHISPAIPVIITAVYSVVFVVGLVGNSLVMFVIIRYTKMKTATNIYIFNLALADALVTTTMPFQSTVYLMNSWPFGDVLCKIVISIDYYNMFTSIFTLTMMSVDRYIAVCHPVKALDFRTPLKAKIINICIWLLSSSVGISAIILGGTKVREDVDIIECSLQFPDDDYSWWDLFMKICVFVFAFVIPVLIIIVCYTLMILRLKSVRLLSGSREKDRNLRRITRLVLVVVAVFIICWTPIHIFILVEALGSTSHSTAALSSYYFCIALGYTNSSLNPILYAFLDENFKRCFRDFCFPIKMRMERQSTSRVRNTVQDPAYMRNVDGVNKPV
UniProt P33535, whole entry: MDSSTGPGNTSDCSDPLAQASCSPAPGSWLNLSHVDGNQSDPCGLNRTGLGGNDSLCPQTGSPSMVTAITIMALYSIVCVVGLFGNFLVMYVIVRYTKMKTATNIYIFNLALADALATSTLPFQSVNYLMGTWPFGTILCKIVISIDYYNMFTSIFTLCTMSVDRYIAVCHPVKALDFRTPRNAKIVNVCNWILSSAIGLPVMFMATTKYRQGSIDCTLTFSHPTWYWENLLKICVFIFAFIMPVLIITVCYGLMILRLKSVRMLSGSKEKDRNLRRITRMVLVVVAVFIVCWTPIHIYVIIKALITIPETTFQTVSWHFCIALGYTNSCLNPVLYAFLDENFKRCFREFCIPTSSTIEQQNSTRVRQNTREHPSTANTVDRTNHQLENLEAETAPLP
UniProt P33533, whole entry: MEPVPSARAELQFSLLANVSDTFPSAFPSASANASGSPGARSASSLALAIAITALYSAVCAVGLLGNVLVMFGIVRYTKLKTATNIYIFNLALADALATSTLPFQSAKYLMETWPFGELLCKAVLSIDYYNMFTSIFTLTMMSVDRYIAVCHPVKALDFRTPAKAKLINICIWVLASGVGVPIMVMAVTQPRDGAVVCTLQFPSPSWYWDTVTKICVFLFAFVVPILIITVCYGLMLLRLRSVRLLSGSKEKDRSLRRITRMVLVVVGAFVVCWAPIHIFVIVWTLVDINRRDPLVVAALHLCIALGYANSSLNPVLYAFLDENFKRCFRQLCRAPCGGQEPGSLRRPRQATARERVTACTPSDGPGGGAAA

The subject of test [1] is guinea pig ileum (opiate receptors). Description: Opioid Activity in Electrically Induced Contraction of Guinea Pig Ileum. To be noted: read-out: Guinea pig ileum EC50; field stimulation 0.15 Hz, 1.5 msec; cumulative dosing.
Another test concerns the target kappa opioid receptor (Cavia porcellus, UniProt P41144). Description: Opioid kappa receptor binding (3H-U69593, guinea pig brain membranes). The conditions noted are these: read-out: IC50 3H-U69593 (kappa), 3H-U69593 5 nM, 25° C., 1 hour.
The target in a further test is mu opioid receptor (Rattus norvegicus, UniProt P33535). Description: Opioid mu receptor binding (3H-DAMGO, rat brain membranes). To be noted: read-out: IC50 3H-DAMGO (mu), 3H-DAMGO 1 nM, 25° C., 1 hour.
The next test addresses delta opioid receptor (Rattus norvegicus, UniProt P33533). Briefly: Opioid delta receptor binding (3H-DPDPE, rat brain membranes). The conditions noted are these: read-out: IC50 3H-DPDPE (delta), 3H-DPDPE 3 nM, 25° C.

Regarding `CC(CCCN1C(=O)c2ccccc2S1(=O)=O)N1CCC(n2c(=O)[nH]c3ccccc32)CC1` (racemic), in test [1], the EC50 (usually the concentration giving half of the maximal effect) was found to be 110 nM. The IC50 came out at 1700 nM at kappa opioid receptor, 33 nM at mu opioid receptor and 5700 nM on delta opioid receptor.
